Assay results taken from published antibiotic growth screens (doi:10.1038/s41589-023-01349-8).
The other results are listed elsewhere or left out.

What follows are molecules tested on A. baumannii ATCC 17978 (assay: relative growth (fraction of control); higher = less inhibition). Details: 50 µM.

Structure (SMILES) | relative growth
COc1ccc(C#Cc2ccc3c(c2)[C@]2(C(=O)N3)[C@H](C(=O)N3CCc4cc(OC)c(OC)cc4C3)[C@H]3C(=O)O[C@H](c4ccccc4)[C@H](c4ccccc4)N3[C@@H]2c2ccc(OCCO)cc2)cc1 | 1.31
C[C@@H](O)C#Cc1ccc2c(c1)O[C@@H](CN(C)C)[C@@H](C)CN([C@@H](C)CO)S2(=O)=O | 1
Cn1c(=O)c2[nH]cnc2n(C)c1=O.NCCN | 0.908
O=C(N/N=C/[C@@H](O)[C@H](O)[C@H](O)CO)c1ccccn1 | 1.03
CC(C)CC#Cc1ccc2c(c1)O[C@@H](CN(C)C(=O)C1CCOCC1)[C@@H](C)CN([C@H](C)CO)S2(=O)=O | 0.795
C1CNCCN1 | 0.927
Cc1ccc(Oc2ccccc2)c(NC(=O)c2ccccc2)c1 | 0.828
COc1c2occc2c(OC)c2c(=O)cc(C)oc12 | 0.931
COc1ccc(/C=C/C(=O)c2ccccc2)cc1 | 0.891
Cc1cc2nc3ccc(N(C)C)cc3[s+]c2cc1N.[Cl-] | 1.57
O=C(Nc1cccc2ccccc12)c1ccc(C(F)(F)F)cc1 | 1.06
NC(=O)NCC#Cc1ccc2c(c1)[C@]1(C(=O)N2)[C@H](c2ccccc2OCCO)N2[C@H](c3ccccc3)[C@H](c3ccccc3)OC(=O)[C@H]2[C@@H]1C(=O)O | 1.11
Cl.N=C(N/N=C/c1ccc(Cl)cc1)N/N=C/c1ccc(Cl)cc1 | 0.358
Nc1nonc1C(=O)OCC(=O)N1CCOCC1 | 1.04
Nc1cc(C(Cl)=C(Cl)Cl)c(S(N)(=O)=O)cc1S(N)(=O)=O | 1.25
C[C@@H]1CN([C@@H](C)CO)S(=O)(=O)c2ccc(C#CC3CC3)cc2O[C@@H]1CN(C)C(=O)C1CCCCC1 | 0.904
S=C1NCN(CCc2ccccc2)CN1 | 0.896
c1ccc(Nc2nc(-c3ccccc3)nc3ccccc23)cc1 | 1.04
CC1=C(/C=C/C(C)=C/C=C/C(C)=C/C=C/C=C(C)/C=C/C=C(C)/C=C/C2=C(C)C(=O)C(O)CC2(C)C)C(C)(C)CC(O)C1=O (centres undefined) | 1.21
C[C@H]1CN([C@@H](C)CO)S(=O)(=O)c2ccc(Br)cc2O[C@H]1CN(C)C(=O)C1CCCCC1 | 1.1
N[C@@H](CC(=O)O)c1cccc(O)c1 | 0.98

Structure (SMILES) | relative growth
COCC(=O)N(C)C[C@@H]1Oc2cc(-c3ccc(OC)cc3)ccc2S(=O)(=O)N([C@H](C)CO)C[C@@H]1C | 1.13
CN1CCN(c2c(F)cc3c(=O)c(C(=O)O)cn(CCF)c3c2F)CC1 | 0.15
CC1=NN2C(=NN[C@@]2(C)c2ccccc2)NC1=O | 0.867
O=C(C[C@H]1CC[C@@H](NC(=O)c2cnccn2)[C@H](CO)O1)NCc1ccccc1F | 0.947
Cc1cccc(Oc2ccc(NC(=O)C3CCC(C)CC3)cc2)c1 (centres undefined) | 1.16
N[C@](CC1c2ccccc2Oc2ccccc21)(C(=O)O)[C@H]1C[C@@H]1C(=O)O | 1.12
COc1ccc(NC(=O)Nc2ccc3c(c2)[C@@H]2C[C@H](CC(=O)NCc4ccc(-c5ccccc5)cc4)O[C@@H](CO)[C@@H]2O3)cc1 | 0.814
COc1ccc(S(=O)(=O)N[C@H]2CC[C@@H](CCNC(=O)CN3CCOCC3)O[C@H]2CO)cc1 | 1
CC(=O)OCC(CCn1cnc2cnc(N)nc21)COC(C)=O | 1.27
COc1ccc(S(=O)(=O)N[C@H]2CC[C@H](CC(=O)N3CCC(Cc4ccccc4)CC3)O[C@H]2CO)cc1 | 0.748
Cc1cc([N+](=O)[O-])nn1CC(=O)NC(C)C | 1.12
CC(=O)c1ccc2c(c1)N(CCCN(C)C)c1ccccc1S2.O=C(O)/C=C\C(=O)O | 0.822
O=c1[nH]c(=O)n(C2C[C@H](O)[C@@H](CO)O2)cc1/C=C/Br (some centres undefined) | 0.992
Cc1cc2nc3c(=O)[nH]c(=O)nc-3n(C[C@@H](O)[C@@H](O)[C@@H](O)CO)c2cc1C | 0.926
O=[N+]([O-])c1ncn(Cc2ccccn2)n1 | 0.819
C=CC[C@@H](CC(=O)N[C@@H](CO)Cc1ccccc1)C(=O)N1CCC[C@@H]1COC(=O)[C@@H](CC=C)NC(=O)OCC1c2ccccc2-c2ccccc21 | 1.07
CC(/C=C1\SC(=S)N(CC(=O)O)C1=O)=C\c1ccccc1 | 1.1
Cc1ccc(C(=O)N(CC(N)=O)CC(N)=O)cc1 | 1.06
CC(=O)OCC(=O)[C@@]1(O)CCC2C3CCC4=CC(=O)C=CC4(C)C3[C@@H](O)C[C@@]21C (some centres undefined) | 1.03
CN(/N=C/c1ccncc1)C1=NCCN1 | 1.01
O=C1c2ccccc2C(=O)c2c1ccc(O)c2O | 0.996

Structure (SMILES) | relative growth
CO[C@H](CN(C)C(=O)c1ccccc1F)[C@@H](C)CN([C@H](C)CO)S(=O)(=O)c1ccc(Cl)cc1 | 0.997
COc1ccc(S(=O)(=O)N(C)C[C@H]2Oc3cc(C4=CCCC4)ccc3S(=O)(=O)N([C@H](C)CO)C[C@@H]2C)cc1 | 1.1
O=C(C[C@H]1C=C[C@@H](NS(=O)(=O)c2ccccc2)[C@@H](CO)O1)NCc1ccncn1 | 1.04
CN1C=C(C(=O)OCCS(C)(=O)=O)C(C(=O)OCCS(C)(=O)=O)=CC(c2ccc(CO)cc2)=C[C@@H]1C1CC1 | 1.01
C=CC[C@H](CC(=O)N(CCO)Cc1ccccc1)C(=O)N[C@H](COC(=O)[C@@H](CC=C)CC(=O)OC(C)(C)C)Cc1c[nH]c2ccccc12 | 1.11
O=C(NCCN1CCOCC1)c1ccccn1 | 1.02
C[C@H](CO)N1C[C@H](C)[C@H](CN(C)Cc2ccccc2F)Oc2cc(C#CCN(C)C)ccc2S1(=O)=O | 0.877
O=C(NCCCN1CCOCC1)[C@H]1[C@@H]2C=C[C@@]3(CN(Cc4cccs4)C(=O)[C@@H]13)O2 | 1.18
COc1ccccc1-c1cnc2c(c1)C(=O)N([C@@H](C)CO)C[C@@H](C)[C@H](CN(C)C(=O)c1cccnc1)O2 | 1.07
O=c1oc2ccccc2c(O)c1Cc1c(O)c2ccccc2oc1=O | 1.05
CO[C@@H](CN(C)S(=O)(=O)c1cccc(Cl)c1)[C@H](C)CN([C@@H](C)CO)S(=O)(=O)c1ccc(Cl)cc1 | 0.937
Cn1nc2c(c1N)CCC2 | 0.923
CO[C@@H]1CN(C)C(=O)c2ccc(NC(=O)Nc3ccc(Cl)cc3)cc2OC[C@H](C)N(C(=O)Nc2c(C)noc2C)C[C@@H]1C | 0.812
CC(C)NC(=O)N(C)C[C@@H]1Oc2cc(C#Cc3ccc(F)cc3)ccc2S(=O)(=O)N([C@@H](C)CO)C[C@H]1C | 0.823
CN1CCN(C(=O)C[C@H]2CC[C@@H]3[C@H](COC[C@@H](O)CN3S(=O)(=O)c3cccc(Cl)c3)O2)CC1 | 1.08
Cc1ccc(S(=O)(=O)N2CCO[C@@H]2CNC(=O)C(=O)NCc2ccccn2)cc1 | 1.07
CC(C)NC(=O)N[C@H]1C=C[C@@H](CC(=O)NCCN2CCCC2)O[C@H]1CO | 0.853
O=C(CN1CCOCC1)N[C@H]1CC[C@H](CCNS(=O)(=O)c2ccccc2F)O[C@H]1CO | 1.15
C=CCN(Cc1ccccc1)C(=O)[C@@H]1N(c2cccc(Cl)c2CO)C(=O)[C@H]2[C@H](C(=O)OCC)[C@@H]3C=C[C@]12O3 | 0.934
CN[C@@H]1[C@@H](O[C@H]2O[C@H](CO)[C@@H](N)[C@H](O)[C@H]2O)O[C@H]2C[C@@H](N)[C@H](O[C@H]3[C@H](O)[C@@H](O)[C@H](N)C[C@@H]3N)O[C@@H]2[C@@H]1O.O=S(=O)(O)O | 0.92
OC1(c2ccc(Cl)c(C(F)(F)F)c2)CCN(CCCC(c2ccc(F)cc2)c2ccc(F)cc2)CC1 | 1.09

Structure (SMILES) | relative growth
C[C@H]1CNC(=CC(=O)c2ccccc2)C(=O)N1 | 0.836
O=C(C[C@@H]1CC[C@H]2[C@@H](COC[C@H](O)CN2Cc2cc(F)ccc2F)O1)N[C@H]1CCN(Cc2ccccc2)C1 | 0.905
CC(CN(C)C)CN1c2ccccc2Sc2ccccc21.O=C(O)C(O)C(O)C(=O)O (centres undefined) | 0.94
O=C(O)COC(=O)Cc1ccccc1Nc1c(Cl)cccc1Cl | 1.03
O=C(O)CSc1ncnc2nc[nH]c12 | 0.967
C[C@@H]1CN([C@H](C)CO)S(=O)(=O)c2ccc(-c3ccc(F)cc3)cc2O[C@@H]1CN(C)C(=O)C1CCOCC1 | 0.868
C=C1CC/C=C(/C)CC[C@@H]2[C@@H]1CC2(C)C.O [(-)E-CARYOPHYLLENE hydrate] | 0.937
C[C@H]1CN([C@@H](C)CO)S(=O)(=O)c2ccc(-c3ccncc3)cc2O[C@H]1CN(C)Cc1ccc(Oc2ccccc2)cc1 | 1.34
Cc1ccc2c(N)[nH]nc2n1 | 0.974
N[C@@H](CC(=O)N1CCn2c(nnc2C(F)(F)F)C1)Cc1cc(F)c(F)cc1F.O.O=P(O)(O)O | 1.19
Cl.O=C1CN2Cc3c(ccc(Cl)c3Cl)N=C2N1 | 0.934
O=C(Nc1ccc2c(c1)[C@@H]1C[C@H](CC(=O)N3CCc4ccccc4C3)O[C@H](CO)[C@@H]1O2)C1CCOCC1 | 1.03
COc1ccc(C#Cc2ccc3c(c2)[C@]2(C(=O)N3)[C@H](c3ccc(O)cc3)N3[C@H](c4ccccc4)[C@H](c4ccccc4)OC(=O)[C@H]3[C@@H]2C(=O)O)cc1 | 1.47
Cc1cnc(NC(=O)C2=C(O)c3ccccc3S(=O)(=O)N2C)s1 | 0.992
NC[C@H](c1ccncc1)c1ccc[nH]1 | 0.908
c1cc(-c2nn[nH]n2)ccc1OCc1nn[nH]n1 | 0.853
COc1cc(C)c2c(=O)c(-c3ccccc3)coc2c1 | 1.07
O=C(C[C@@H]1CC[C@H]2[C@@H](COC[C@H](O)CN2S(=O)(=O)c2ccc(Cl)cc2)O1)N[C@H]1CCN(Cc2ccccc2)C1 | 1.04
C[C@H](CO)N1C[C@H](C)[C@H](CN(C)Cc2ccncc2)Oc2cc(C#CCN(C)C)ccc2S1(=O)=O | 0.994
NC1=NCCN1CC(=O)O | 0.995
CC1(C)O[C@@H]2C[C@H]3[C@@H]4CCC5=CC(=O)C=C[C@]5(C)[C@@]4(F)[C@@H](O)C[C@]3(C)[C@]2(C(=O)CO)O1 | 0.974
